Data on one compound can be found in publication PMC6887663 (Pharmacology Research & Perspectives, 2019).

By UniProt entry, the sequences of proteins in these tests, tags left out.
UniProt P08183, whole entry: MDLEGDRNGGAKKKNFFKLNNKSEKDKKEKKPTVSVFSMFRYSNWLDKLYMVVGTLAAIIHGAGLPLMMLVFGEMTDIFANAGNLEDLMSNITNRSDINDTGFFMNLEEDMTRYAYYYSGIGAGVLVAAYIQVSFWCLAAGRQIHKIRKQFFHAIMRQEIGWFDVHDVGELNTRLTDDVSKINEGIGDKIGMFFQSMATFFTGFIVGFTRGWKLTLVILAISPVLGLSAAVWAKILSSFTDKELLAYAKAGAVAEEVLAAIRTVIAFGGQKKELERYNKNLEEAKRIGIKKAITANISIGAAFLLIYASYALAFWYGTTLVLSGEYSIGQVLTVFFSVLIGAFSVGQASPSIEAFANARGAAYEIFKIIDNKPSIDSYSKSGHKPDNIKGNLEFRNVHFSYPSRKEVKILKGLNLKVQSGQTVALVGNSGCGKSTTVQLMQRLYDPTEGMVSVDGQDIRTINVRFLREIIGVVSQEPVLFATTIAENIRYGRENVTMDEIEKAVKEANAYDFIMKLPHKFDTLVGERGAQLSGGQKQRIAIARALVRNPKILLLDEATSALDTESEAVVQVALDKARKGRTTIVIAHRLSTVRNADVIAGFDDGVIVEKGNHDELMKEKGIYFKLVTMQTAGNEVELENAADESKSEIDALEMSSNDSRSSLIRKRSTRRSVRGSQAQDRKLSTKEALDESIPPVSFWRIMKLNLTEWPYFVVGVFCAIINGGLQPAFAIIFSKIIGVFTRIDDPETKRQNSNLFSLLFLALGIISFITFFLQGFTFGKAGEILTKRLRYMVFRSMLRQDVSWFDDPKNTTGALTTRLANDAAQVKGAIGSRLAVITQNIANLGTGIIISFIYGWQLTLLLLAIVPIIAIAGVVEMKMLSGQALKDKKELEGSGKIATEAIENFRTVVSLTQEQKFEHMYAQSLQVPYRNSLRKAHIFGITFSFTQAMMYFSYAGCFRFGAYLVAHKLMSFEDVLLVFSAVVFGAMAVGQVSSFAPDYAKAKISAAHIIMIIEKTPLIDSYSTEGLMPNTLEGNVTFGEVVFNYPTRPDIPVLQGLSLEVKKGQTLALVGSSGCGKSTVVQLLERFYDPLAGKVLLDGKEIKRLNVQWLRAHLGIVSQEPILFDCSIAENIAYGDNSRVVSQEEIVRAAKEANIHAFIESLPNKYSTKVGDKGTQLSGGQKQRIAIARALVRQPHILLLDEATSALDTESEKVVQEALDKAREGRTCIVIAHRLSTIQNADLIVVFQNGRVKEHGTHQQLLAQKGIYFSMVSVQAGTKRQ

The target in series [1] is T1, P‐gp (Homo sapiens, UniProt P08183). Put plainly: P-gp inhibition, [3H]digoxin efflux in Caco-2 cells. Particulars: [^3H]digoxin in the absence of DMF and MMF.
In series [2] the target is T1, P‐gp. Put plainly: P-gp substrate assessment in MDCKII-MDR1 and WT MDCKII cells. Particulars: [^3H]digoxin; in both DMF and MMF experiments; reduced by verapamil. Type of series: in vitro ADME.

Bounds are passed on as bounds.

As for `C[C@H]1O[C@@H](O[C@H]2[C@@H](O)C[C@H](O[C@H]3[C@@H](O)C[C@H](O[C@H]4CC[C@@]5(C)[C@H](CC[C@@H]6[C@@H]5C[C@@H](O)[C@]5(C)[C@@H](C7=CC(=O)OC7)CC[C@]65O)C4)O[C@@H]3C)O[C@@H]2C)C[C@H](O)[C@@H]1O` [[^3H]digoxin, reference compound], the “efflux ratio of probe substrate” value on P‐gp [1] is no less than 5.89. Besides, the “net efflux ratio of probe substrate” value at P‐gp [2] was greater than 16.6.
